Source: PubChem BioAssay (NCI)
Some salts or complexes appear as unconnected parts, following the source record.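 Cultured in 96-well plates, cells were exposed to test compound for 48 hours across five concentrations. The concentration for 50% growth inhibition is given as GI50. The concentration for full growth arrest is given as TGI.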

Columns and labels:
Assay in all cases: DTP human tumour cell line panel, 48 h
[1] = test system: NCI-H460 lung
[2] = test system: 786-0 renal
[3] = test system: HT29 colon
[4] = test system: LOX IMVI melanoma
[5] = test system: MOLT-4 leukemia
[6] = test system: UACC-62 melanoma
[7] = test system: KM20L2 colon
[8] = test system: SK-MEL-28 melanoma
[9] = test system: MALME-3M melanoma
[10] = test system: HCT-116 colon
[11] = test system: NCI-H322M lung
[12] = test system: SR leukemia
[13] = test system: OVCAR-4 ovarian
[14] = test system: NCI-H522 lung
[15] = test system: DMS 273 small cell lung
[16] = test system: OVCAR-3 ovarian
[17] = test system: M14 melanoma
[18] = test system: ACHN renal
[19] = test system: SK-MEL-2 melanoma
[20] = test system: NCI-H23 lung
[21] = test system: SNB-78 CNS
[22] = test system: A498 renal
[23] = test system: UACC-257 melanoma
[24] = test system: SW-620 colon
[25] = test system: HL-60(TB) leukemia
[26] = test system: K-562 leukemia
[27] = test system: DMS 114 small cell lung
[28] = test system: HOP-92 NSCLC
[29] = test system: CCRF-CEM leukemia
[30] = test system: SF-295 CNS
[31] = test system: SNB-19 CNS
[32] = test system: UO-31 renal
[33] = test system: KM12 colon
[34] = test system: SF-539 CNS
[35] = test system: A549 NSCLC
[36] = test system: RXF 393 renal
[37] = test system: HCC-2998 colon

Q: Which GI50 [1] does the source give for `N#[O+].O=C([O-])c1ccccc1.[Re].[c-]1[c-][c-][cH-][c-]1.c1ccc([PH+](c2ccccc2)c2ccccc2)cc1` here?
A: 14.1 µM

Q: What about the TGI [1] of the same molecule?
A: > 100 µM

Q: And the GI50 [2]?
A: 59.2 µM

Q: And the TGI [2]?
A: > 100 µM

Q: And the GI50 [3]?
A: 73.6 µM

Q: And the TGI [3]?
A: > 100 µM

Q: What about the GI50 [4] of the same molecule?
A: 22.8 µM

Q: And the TGI [4]?
A: > 100 µM

Q: What about the GI50 [5] of the same molecule?
A: > 100 µM

Q: What about the TGI [5] of the same molecule?
A: > 100 µM

Q: What about the GI50 [6] of the same molecule?
A: 42.4 µM

Q: And the TGI [6]?
A: > 100 µM

Q: What about the GI50 [7] of the same molecule?
A: 70.3 µM

Q: What about the TGI [7] of the same molecule?
A: > 100 µM

Q: What about the GI50 [8] of the same molecule?
A: 43.6 µM

Q: What about the TGI [8] of the same molecule?
A: > 100 µM

Q: And the GI50 [9]?
A: 22.3 µM

Q: What about the TGI [9] of the same molecule?
A: 94.3 µM

Q: And the GI50 [10]?
A: 23.5 µM

Q: And the TGI [10]?
A: > 100 µM

Q: And the GI50 [11]?
A: > 100 µM

Q: And the TGI [11]?
A: > 100 µM

Q: And the GI50 [12]?
A: > 100 µM

Q: And the TGI [12]?
A: > 100 µM

Q: And the GI50 [13]?
A: 16.6 µM

Q: And the TGI [13]?
A: > 100 µM

Q: And the GI50 [14]?
A: 35.3 µM

Q: And the TGI [14]?
A: > 100 µM

Q: And the GI50 [15]?
A: 29.9 µM

Q: What about the TGI [15] of the same molecule?
A: > 100 µM

Q: And the GI50 [16]?
A: 21.7 µM

Q: What about the TGI [16] of the same molecule?
A: > 100 µM

Q: And the GI50 [17]?
A: 41.8 µM

Q: What about the TGI [17] of the same molecule?
A: > 100 µM

Q: And the GI50 [18]?
A: 59.7 µM

Q: And the TGI [18]?
A: > 100 µM

Q: And the GI50 [19]?
A: 29.9 µM

Q: And the TGI [19]?
A: > 100 µM

Q: What about the GI50 [20] of the same molecule?
A: 27.3 µM

Q: What about the TGI [20] of the same molecule?
A: > 100 µM

Q: What about the GI50 [21] of the same molecule?
A: 36.3 µM

Q: And the TGI [21]?
A: > 100 µM

Q: And the GI50 [22]?
A: 55.6 µM

Q: And the TGI [22]?
A: > 100 µM

Q: What about the GI50 [23] of the same molecule?
A: 38.7 µM

Q: What about the TGI [23] of the same molecule?
A: > 100 µM

Q: What about the GI50 [24] of the same molecule?
A: 55.7 µM

Q: What about the TGI [24] of the same molecule?
A: > 100 µM

Q: And the GI50 [25]?
A: 24.7 µM

Q: What about the TGI [25] of the same molecule?
A: > 100 µM

Q: And the GI50 [26]?
A: 26.3 µM

Q: And the TGI [26]?
A: > 100 µM

Q: And the GI50 [27]?
A: 22.9 µM

Q: What about the TGI [27] of the same molecule?
A: > 100 µM

Q: And the GI50 [28]?
A: 37.1 µM

Q: What about the TGI [28] of the same molecule?
A: 87.9 µM

Q: What about the GI50 [29] of the same molecule?
A: 48.8 µM

Q: What about the TGI [29] of the same molecule?
A: > 100 µM

Q: What about the GI50 [30] of the same molecule?
A: 34.6 µM

Q: And the TGI [30]?
A: > 100 µM

Q: What about the GI50 [31] of the same molecule?
A: 53 µM

Q: And the TGI [31]?
A: > 100 µM

Q: And the GI50 [32]?
A: > 100 µM

Q: What about the TGI [32] of the same molecule?
A: > 100 µM

Q: And the GI50 [33]?
A: 96.6 µM

Q: And the TGI [33]?
A: > 100 µM

Q: And the GI50 [34]?
A: 53.2 µM

Q: And the TGI [34]?
A: > 100 µM

Q: And the GI50 [35]?
A: 19 µM

Q: What about the TGI [35] of the same molecule?
A: 79.3 µM

Q: What about the GI50 [36] of the same molecule?
A: 44.1 µM

Q: What about the TGI [36] of the same molecule?
A: > 100 µM

Q: And the GI50 [37]?
A: 47.3 µM

Q: And the TGI [37]?
A: > 100 µM
